In patent US8105836B2, “Chemical inhibitors of mismatch repair” (priority 2001, dated 2012):

System: mismatch repair (MMR) in H36 pCAR-OF cells
Test: H36 pCAR-OF β-galactosidase MMR-sensitive reporter screening assay
Format: cell-based, murine

CN(N=O)C(=N)N[N+](=O)[O-]
generation of β-galactosidase positive cells / MI and shifting of the polynucleotide tract in the pCAR-OF reporter: did not result in MI and/or the shifting of the polynulceotide tract in the pCAR-OF reporter
